In ChEMBL document CHEMBL1139391, “Synthesis and structure-activity relationship of benzetimide derivatives as human CXCR3 antagonists” (Bioorg Med Chem Lett, 2008) one finds IC50 data, which are given here for one compound.

This assay deals with T1, C-X-C chemokine receptor type 3 (Homo sapiens, UniProt P49682).
T1 sequence (P49682 whole entry): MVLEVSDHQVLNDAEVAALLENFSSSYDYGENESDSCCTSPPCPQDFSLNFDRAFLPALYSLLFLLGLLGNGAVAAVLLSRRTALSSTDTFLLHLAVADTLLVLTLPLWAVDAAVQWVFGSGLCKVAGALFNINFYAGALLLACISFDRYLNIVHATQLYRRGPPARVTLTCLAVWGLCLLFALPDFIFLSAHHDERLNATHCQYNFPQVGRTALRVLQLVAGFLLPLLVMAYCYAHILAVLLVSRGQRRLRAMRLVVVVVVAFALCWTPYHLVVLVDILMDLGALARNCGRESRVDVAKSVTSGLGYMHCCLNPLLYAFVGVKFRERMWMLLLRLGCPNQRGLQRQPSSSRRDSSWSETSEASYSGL
As to the kind of experiment: Antagonist activity at human CXCR3 expressed in CHO cells assessed as inhibition of ITAC-stimulated [35S]GTPgammaS binding pretreated 30 mins before ITAC challenge. The assay is classed as functional, cell-based. Summed up:
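Membranes from stably hCXCR3-expressing CHO cells in 20 mM Hepes, 100 mM NaCl, 3 µM GDP, 1 mM MgCl2, 14 µg/ml saponin, pH 7.4. Pre-incubated with compound for 30 min at 30 °C, then stimulated with human ITAC (3 nM) or IP-10 (150 nM).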
(Binding of GTPγS marks nucleotide exchange on a G protein.)

One may read the IC50 as the concentration at which inhibition is half-maximal. Take `CCOc1ccc(-n2c([C@@H](C)N(Cc3cccnc3)C(=O)Cc3ccc(OC(F)(F)F)cc3)nc3ncccc3c2=O)cc1`: the concentration for half-maximal inhibition (IC50) turned out to be 330 nM.
